# From PubChem BioAssay AID624288 (National Center for Advancing Translational Sciences (NCATS), 2012)
# The list shows a part of the results, in another mix than the full data. Inconclusive results are not listed. Calls of active or inactive are those of the source. The call rests on the fitted dose curve; cell line not stated here.
# Assay: qHTS for Antagonists of gsp, the Etiologic Mutation Responsible for Fibrous Dysplasia/McCune-Albright Syndrome: qHTS; further: nearly all actives have a fitted effect of over 65% in size
# Conditions: gsp-mutant cells, cAMP HTRF, 30 min
# Potency means the concentration at half of the fitted maximal effect.
row,Structure (SMILES),Potency
1,CN(C)C(=O)c1cc([N+](=O)[O-])cc2c1-c1c(cc([N+](=O)[O-])cc1[N+](=O)[O-])C2=O,active: 39.8 µM
2,O=[N+]([O-])c1ccc(O)c(/C=N/Nc2ccc([N+](=O)[O-])cc2[N+](=O)[O-])c1,active: 4.47 µM
3,O=c1c2cc([N+](=O)[O-])ccc2[nH]c2c([N+](=O)[O-])cc([N+](=O)[O-])cc12,active: 28.2 µM
